The results in this text go back to ChEMBL document CHEMBL3792331, “Identification and synthesis of potent and selective pyridyl-isoxazole based agonists of sphingosine-1-phosphate 1 (S1P1)” (Bioorg Med Chem Lett, 2016).

The assay in a line: Selectivity index, ratio of EC50 for agonist activity at human S1P3 receptor expressed in EDG3-Ga15-bla HEK293T cell membranes to EC50 for agonist activity at human S1P1 receptor expressed in CHO cell membranes. Type of assay: cell-based. The gist of the method: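 S1P3/S1P1 ratio of GTPγ[35S] EC50s. Membranes from EDG3-Ga15-bla HEK293T (S1P3) or S1P1/CHO cells, […], 0.2 nM final [35S]GTP. HEPES pH 7.5 buffer with MgCl2, NaCl, EGTA, DTT, GDP, BSA and saponin. 45 min at room temperature, filtration read-out. Each EC50 taken at 50% of the compound's own Ymax.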

With `O=C(O)C1CN(Cc2ccc(-c3noc(-c4onc(-c5ccccc5)c4C(F)(F)F)n3)cc2)C1`, the Ratio EC50 worked out at 3400.
